According to ChEMBL document CHEMBL3351413, “Development of quinone analogues as dynamin GTPase inhibitors” (Eur J Med Chem, 2014):
Activity calls are given as the source filed them. The calls are words filed in the database; no cut-off is given here.

Test: Inhibition of phosphatidylserine-stimulated GTPase activity of sheep brain Dynamin 1 expressed in Sf21 cells assessed as inhibition of orthophosphate release from GTP up to 300 uM by malachite green method
Conditions: Ovis aries
In short: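 DynI at 50 nM final was stimulated with phosphatidylserine liposomes for 30 min. Orthophosphate released from GTP was detected colorimetrically by Malachite Green. Compounds came from 30 mM DMSO stocks diluted in 50% DMSO/20 mM Tris-HCl pH 7.4; final DMSO was at most 3.3%.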

Row | Compound | inhibition
1 | O=C1C=C(NCCCl)C(=O)C=C1NCCCl | inactive
2 | O=C1C=C(NCCBr)C(=O)C=C1NCCBr | inactive
